The results in this text go back to PubChem BioAssay AID492992 (Johns Hopkins Ion Channel Center, 2010).

Chains of the proteins cited; added tags and fusions are not shown. Lines headed by an entry give the natural chain unless they say otherwise; changes in a name come on top.
UniProt Q9NPC2: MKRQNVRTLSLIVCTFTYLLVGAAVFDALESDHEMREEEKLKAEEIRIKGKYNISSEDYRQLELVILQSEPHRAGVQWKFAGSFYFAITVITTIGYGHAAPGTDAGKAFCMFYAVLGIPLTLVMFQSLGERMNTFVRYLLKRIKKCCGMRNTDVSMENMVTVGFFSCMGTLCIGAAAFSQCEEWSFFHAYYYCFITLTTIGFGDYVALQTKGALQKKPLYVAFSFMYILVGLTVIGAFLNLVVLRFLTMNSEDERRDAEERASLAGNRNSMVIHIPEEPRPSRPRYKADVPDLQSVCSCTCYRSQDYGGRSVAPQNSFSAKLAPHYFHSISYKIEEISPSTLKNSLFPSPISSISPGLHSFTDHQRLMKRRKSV

Structures are written as SMILES. This is a selection; strong and weak results do not stand in their true shares. The source made the active and inactive calls.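 Rule for the calls: active = thallium signal inhibited by more than 5 SD of the compound-free buffer control wells, on both duplicate plates; inactive = the rest.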

For the assay, the target named is Potassium channel subfamily K member 9 (Homo sapiens) (UniProt Q9NPC2). In words: KCNK9 potassium channel inhibitors, confirmation, HEK293 cells, thallium flux, duplicate (AID 492992).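 Note: 0% = assay buffer control wells without compound.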 As to conditions: FluxOR thallium flux fluorescence, at 10 µM, hits give high values.
Turning to `O=P(Nc1nccs1)(c1ccccc1)c1nc2ccccc2s1` (stereo unspecified), the inhibition (as a rule, the relative decrease from the control value, in per cent) is active: 39.5%.
